# In US6790644B2, “1,3-dicarbonyl-dioxygenase—a new c-c-bond cleaving enzyme” (Biocatalytics, Inc., priority 2001, dated 2004):
# Tested on: CC(=O)CC(C)=O
# Experiment: purified protein, by the assay type
# Conditions: pH 7.5; 25.0 °C
substance,measurement,value
"1,3-dicarbonyl-dioxygenase (Acinetobacter johnsonii)",Km,7.4 ± 1.9 µM
